Experimental findings from patent EP3339324A1, “ANTI-ADRENOMEDULLIN (ADM) ANTIBODY OR ANTI-ADM ANTIBODY FRAGMENT OR ANTI-ADM NON-IG SCAFFOLD FOR USE IN IN[…] THERAPY OF […] A PATIENT IN NEED THEREOF” (sphingotec GmbH, priority 2016, dated 2018) are described below.

Sequences of proteins named here, by UniProt entry; tags and fusion partners are left off. Residues count along the entry.
UniProt P35318, 95-146: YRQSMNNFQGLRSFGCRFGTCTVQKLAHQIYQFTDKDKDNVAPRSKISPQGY

For the series, the target named is hADM (Homo sapiens, UniProt P35318). The conditions noted are these: human Citrate plasma, 10nM hADM, 24 °C, absence of NT-H.

In the case of `CC[C@H](C)[C@H](NC(=O)[C@H](CCC(N)=O)NC(=O)[C@H](Cc1c[nH]cn1)NC(=O)[C@H](C)NC(=O)[C@H](CC(C)C)NC(=O)[C@H](CCCCN)NC(=O)[C@H](CCC(N)=O)NC(=O)[C@@H](NC(=O)[C@@H](NC(=O)[C@@H]1CSSC[C@H](NC(=O)CNC(=O)[C@H](Cc2ccccc2)NC(=O)[C@H](CO)NC(=O)[C@H](CCCNC(=N)N)NC(=O)[C@H](CC(C)C)NC(=O)CNC(=O)[C@H](CCC(N)=O)NC(=O)[C@H](Cc2ccccc2)NC(=O)[C@H](CC(N)=O)NC(=O)[C@H](CC(N)=O)NC(=O)[C@H](CCSC)NC(=O)[C@H](CO)NC(=O)[C@H](CCC(N)=O)NC(=O)[C@H](CCCNC(=N)N)NC(=O)[C@@H](N)Cc2ccc(O)cc2)C(=O)N[C@@H](CCCNC(=N)N)C(=O)N[C@@H](Cc2ccccc2)C(=O)NCC(=O)N[C@@H]([C@@H](C)O)C(=O)N1)[C@@H](C)O)C(C)C)C(=O)N[C@@H](Cc1ccc(O)cc1)C(=O)N[C@@H](CCC(N)=O)C(=O)N[C@@H](Cc1ccccc1)C(=O)N[C@H](C(=O)N[C@@H](CC(=O)O)C(=O)N[C@@H](CCCCN)C(=O)N[C@@H](CC(=O)O)C(=O)N[C@@H](CCCCN)C(=O)N[C@@H](CC(=O)O)C(=O)N[C@@H](CC(N)=O)C(=O)N[C@H](C(=O)N[C@@H](C)C(=O)N1CCC[C@H]1C(=O)N[C@@H](CCCNC(=N)N)C(=O)N[C@@H](CO)C(=O)N[C@@H](CCCCN)C(=O)N[C@H](C(=O)N[C@@H](CO)C(=O)N1CCC[C@H]1C(=O)N[C@@H](CCC(N)=O)C(=O)NCC(=O)N[C@@H](Cc1ccc(O)cc1)C(N)=O)[C@@H](C)CC)C(C)C)[C@@H](C)O` [hADM], the “half-life of hADM alone” value turned out to be 7.8 h.
